Reference: patent US9040518B2, “Chemical compounds” (GlaxoSmithKline LLC, priority 2010, dated 2015)

Sequences of proteins named here, by UniProt entry; tags and fusion partners are left off. A change or cut given only in a name is not applied to a line headed by its entry.
UniProt Q12908: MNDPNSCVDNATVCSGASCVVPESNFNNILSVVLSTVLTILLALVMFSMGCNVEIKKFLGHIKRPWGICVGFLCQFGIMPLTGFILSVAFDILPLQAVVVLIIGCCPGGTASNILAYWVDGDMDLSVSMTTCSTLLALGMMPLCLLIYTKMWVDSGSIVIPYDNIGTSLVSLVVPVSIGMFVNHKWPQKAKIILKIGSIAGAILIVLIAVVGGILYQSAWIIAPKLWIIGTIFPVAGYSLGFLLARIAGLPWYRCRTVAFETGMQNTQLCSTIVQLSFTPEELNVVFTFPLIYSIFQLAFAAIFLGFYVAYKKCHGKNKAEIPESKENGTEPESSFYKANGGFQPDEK

Molecular target: ileal bile acid cotransporter (iBAT) (Homo sapiens (Human), UniProt Q12908)
Experiment: Human iBAT inhibition: [3H]-taurocholate uptake into HEK293 cells expressing human iBAT
Assay type: cell-based
Settings: HEK293 cells transduced with human iBAT Bacmam virus, 90 minutes at ambient temperature, mean of at least 2 datapoints
Protocol: Method for Determination of Human iBAT Inhibition:
In preparation for measurement of bile acid uptake into cells expressing the ileal bile acid cotransporter (iBAT), HEK293 cells were cultured in DMEM/F12 supplemented with 10% FBS. Twenty four hours prior to running an experiment, cells were harvested when at a confluence of 80-90%. Cells were seeded in poly-d-lysine coated plates at 50,000 cells per well, and human iBAT Bacmam virus was added such that each well contains 3.67×10e6 pfu (73.4pfu/cell). Each assay plate was covered with Breathe Easy Seal and placed in an incubator for 24 hours to allow expression of the transporter.
On the day of the uptake experiment, 10 mM HEPES was added to Hank's Balanced Salt Solution, and the pH was adjusted to 7.4 with TRIS (HBSSH). The assay buffer was prepared by adding […] [^3H]-taurocholate and 10 μM cold taurocholate to room temperature HBSSH. A separate washing buffer was prepared by adding 10 μM cold taurocholate to HBSSH (˜30 ml per assay plate) and placed on ice. Using 100% DMSO, 8 point, 3-fold dilution curves for each test compound was prepared starting at 200 μM. […] The amount of [^3H]-taurocholate in cell lysate was quantitated using a microplate scintillation counter on the following day. […]

| IC50 [nM] | SMILES |
| --- | --- |
| 100 | CCCC[C@]1(CC)CS(=O)(=O)c2cc(C(=O)NC(CC(=O)O)CC(=O)O)c(OC)cc2[C@@H](c2ccccc2)N1 [Example 70, 3-({[(3R,5R)-3-butyl-3-ethyl-7-(methyloxy)-1,1-dioxido-5-phenyl-2,3,4,5-tetrahydro-1,4-benzothiazepin-8-yl]carbonyl}amino)pentanedioic acid] |
| 100 | CCCC[C@]1(CC)CS(=O)(=O)c2cc(C(C)=O)c(OC)cc2[C@@H](c2ccccc2)N1 [Example 71, 1-[(3R,5R)-3-butyl-3-ethyl-7-(methyloxy)-1,1-dioxido-5-phenyl-2,3,4,5-tetrahydro-1,4-benzothiazepin-8-yl]ethanone] |
